## Antibody variant affinities, Ab-14 light chain, assay 1

Reference: Engelhart et al. 2022, doi:10.1038/s41597-022-01779-4. File: FLAb, binding data.

Target: peptide PDVDLGDISGINAS, taken from heptad repeat 2 (HR2) of SARS-CoV-2 spike.

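AAYL50 was designed without a model: most single CDR substitutions and a random sample of double and triple ones. In AlphaSeq, yeast of one mating type display the scFv and yeast of the other type display the target. Mating (16 h, 30 °C) was followed by selection of diploids and sequencing of their barcodes. The ratio of observed to expected reads was calibrated, replicate by replicate, on BCL2-family standards whose Kd was known from biolayer interferometry. There are three technical replicates.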

The variants keep the heavy chain, the linker and the frameworks of Ab-14 (scFv order VH, three GGGGS repeats, VL).
VH: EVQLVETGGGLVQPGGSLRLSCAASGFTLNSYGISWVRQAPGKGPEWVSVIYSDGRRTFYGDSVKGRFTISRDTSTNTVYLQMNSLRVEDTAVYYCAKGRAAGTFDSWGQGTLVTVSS
VL: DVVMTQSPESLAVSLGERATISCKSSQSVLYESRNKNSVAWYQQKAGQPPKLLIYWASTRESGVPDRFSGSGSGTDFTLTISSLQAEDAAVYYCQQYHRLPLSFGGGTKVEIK

Variants are written as CDR1, CDR2 and CDR3 of the light chain (limits as in the source). Parent: KSSQSVLYESRNKNSVA, WASTRES, QQYHRLPLS.
Every variant below is changed at Q95 of the VL (sequential numbering).
Scale: log10 of Kd in nM, estimated from mating counts; low values are strong binders.
A mean of the replicates is given; it leaves out those without a signal.
A pair that was not seen in any replicate is written "nd"; this usually means weak binding, but a binder can also be missed.
As a blank, each scFv also met three strains without target: over library AAYL50, 18% of these pairings were detected, typically at 4.19 and seldom below 2.99.

With KSSQSVLYESRNKNSVA | WASTRES | PQFHRLPLS the result was nd (0 of 3 replicates). Variant KSSQSVLMESRNKNSQA | WASTRES | YQYHRLPLS gave nd (0 of 3 replicates). Variant KSSQSYLYESRNKNSVA | WASTRFS | GQYHRLPLS gave 2.58 (1 of 3 replicates). For KSSQSVLYEQRNKNSVA | WASTRSS | YQYHRLPLS, the assay gave nd (0 of 3 replicates). Variant KSSQSVLVESRNKNSVA | WASTRES | FSYHRLPLS gave nd (0 of 3 replicates). Variant KSSQSVGYESRNKNCVA | WASTRES | HQYHRLPLS showed nd (0 of 3 replicates). For TSSQSVLYESRNKNSVA | WASTCES | NQYHRLPLS, the assay gave 4.72 (2 of 3 replicates). Variant KIGQSVLYESRNKNSVA | WASTRES | IQYHRLPLS gave 1.14 (3 of 3 replicates).

With KSSQSVLEESRNKNSVA | WASTRHS | FQYHRLPLS the result was 3.27 (3 of 3 replicates). For ASSQSVLYESRNKNSVA | WASFRES | KQYHRLPLS, the assay gave 3.46 (3 of 3 replicates). Variant KSSQSVLYESRNKNSVS | WASTRES | NQYHRLPLS showed 3.19 (1 of 3 replicates). With KGQQSVLYESRNKNSVA | WASTRES | WQYHRLPLS the result was 1.91 (3 of 3 replicates). With KSSQSVLYESRNKNSVA | WASTPMS | SQYHRLPLS the result was nd (0 of 3 replicates). Variant KSSQSVLYEFRCKNSVA | WASTRES | SQYHRLPLS showed 4.55 (3 of 3 replicates). Variant KSSQSVLYESRNYNSKA | WASTRES | WQYHRLPLS showed 3.55 (1 of 3 replicates). With KSSQHVLYESRCKNSVA | WASTRES | VQYHRLPLS the result was 3.94 (1 of 3 replicates).

For KSSQSVIYESRNKNSVA | WASTSES | PQYHRLPLS, the assay gave 3.22 (1 of 3 replicates). With KSSQSVLYESRPKNSVA | WASTRES | SQYHRLPLS the result was 3.80 (1 of 3 replicates). With KSSQSQLYESRNKNSVA | WASTLES | KQYHRLPLS the result was 6.07 (1 of 3 replicates). With KSSNSVLYESREKNSVA | WASTRES | WQYHRLPLS the result was 2.21 (3 of 3 replicates). For KSSQSVLYESRNKNSVA | WAETRES | WQYHRLPYS, the assay gave 2.21 (3 of 3 replicates). Variant KKSQSVLYELRNKNSVA | WASTRES | HQYHRLPLS showed nd (0 of 3 replicates). Variant KSSQSVLYESRNKNSVA | WAFTREG | WQYHRLPLS showed nd (0 of 3 replicates). Variant KSSQSVLYESRNKNSVA | WASIRES | IQYHRLPLS showed 1.18 (3 of 3 replicates).

With ISSQSVLYEFRNKNSVA | WASTRES | SQYHRLPLS the result was nd (0 of 3 replicates). Variant KSSQSVLYESRNKNSVA | WASVRES | KQYHRLPLS showed 3.49 (3 of 3 replicates). For KSSQSVLYESREKNSVA | WASTRES | AQYHRLQLS, the assay gave 2.44 (3 of 3 replicates). With KSSQSVLYESRNKNSVA | WASTREN | GQYHRLPLS the result was 2.57 (1 of 3 replicates). With KSSQSVLYESRNKNSRA | WASTDES | YQYHRLPLS the result was 2.69 (1 of 3 replicates). With KMSQSVLYESRNKNSVA | WASTRES | YQYHRLPLS the result was 0.93 (3 of 3 replicates). For KISQSVLYESRNKNSVA | WASTRES | YQYHDLPLS, the assay gave 0.55 (3 of 3 replicates). For KSSQSMLYESRNKNSPA | WASTRES | NQYHRLPLS, the assay gave 3.38 (1 of 3 replicates).

Variant KSSQSVLMEIRNKNSVA | WASTRES | VQYHRLPLS showed 4.30 (2 of 3 replicates). Variant KSSQSVLYESRNKNPVA | WASTRES | YQQHRLPLS gave 1.27 (3 of 3 replicates).

Again, the first 2 entries without any signal:

| CDR-L1 | CDR-L2 | CDR-L3 | log10 Kd (nM), mean | detected |
|---|---|---|---|---|
| KSSQSVLYESRNKNSVA | WASTRES | PQFHRLPLS | nd | 0/3 |
| KSSQSVLMESRNKNSQA | WASTRES | YQYHRLPLS | nd | 0/3 |